Assays:
[1] = test system: carrageenan-induced thermal hyperalgesia; assay: Carrageenan-induced thermal hyperalgesia, paw withdrawal latency; assay type: in vivo, rat; details: 300 μg IT, pretreatment -10 min; T=0 to 180 min; vehicle control 77±4
spontaneous movement = assay: Spontaneous movement after IT injection, automated flinch counting device without formalin; details: for Effect on spontaneous movement / normal motor function: intrathecal administration, result in words
[2] = test system: formalin induced flinching; assay: Formalin induced flinching; assay type: in vivo, rat; details: IT pretreatment, versus IT vehicle, result in words

SMILES: CCCCC/C=C\C/C=C\C/C=C\C/C=C\CCCCOP(=O)(F)OC (stereo not drawn)
- Hyperalgesic index [1]: 25±11
- Effect on spontaneous movement / normal motor function (spontaneous movement): no effect on normal motor function
- Effect on spontaneous movement / normal motor function (spontaneous movement; listed as MAPF): no statistically significant difference
- Number of counts (spontaneous movement; spontaneous movement during 60 minutes, started 10 minutes after IT injection, no formalin): 311 ± 40 counts
- Formalin flinching Phase 1 ([2]; Phase 1 (0-9 min)): not significantly affected
- Formalin flinching Phase 2 ([2]; Phase 2 (10-60 min)): statistically significant reduction

Reference: patent US7745489B2, “Compositions and methods for inhibition of phospholipase A2 mediated inflammation” (The Regents of the University of California, priority 2002, dated 2010)
